## Measured affinities in a library of Ab-14 light chain variants

From the AlphaSeq antibody data of Li et al. 2023 (doi:10.1038/s41467-023-39022-2), copy in the FLAb collection.

Target peptide (SARS-CoV-2 spike, HR2 region): PDVDLGDISGINAS

The variants keep the heavy chain, the linker and the frameworks of Ab-14 (scFv order VH, a 15-residue (Gly4Ser)3 linker, VL).
VH: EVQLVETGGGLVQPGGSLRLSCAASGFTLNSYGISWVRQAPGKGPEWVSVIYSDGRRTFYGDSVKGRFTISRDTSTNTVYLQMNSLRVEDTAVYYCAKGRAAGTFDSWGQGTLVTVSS
VL: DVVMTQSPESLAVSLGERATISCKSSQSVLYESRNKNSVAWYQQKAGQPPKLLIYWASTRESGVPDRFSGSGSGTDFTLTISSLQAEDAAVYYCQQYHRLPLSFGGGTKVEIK

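Phage display of a naive human antibody library on the peptide gave the parent. These sequences belong to a second round, designed from the earlier measurements on random variants of the parent. Their group label is 14L_GP_Gen (GP: Gaussian process model; Gen: genetic algorithm; a sequence that several methods proposed may carry one label only). In AlphaSeq, yeast of one mating type display the scFv and yeast of the other type display the target. Mating (16 h, 30 °C) was followed by selection of diploids and sequencing of their barcodes. Read counts were normalised to the haploid input and turned into Kd by a linear fit to BCL2-family pairs of known affinity, for each replicate. Each pool was mated in six replicate cultures.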

Variants are written as CDR1, CDR2 and CDR3 of the light chain (limits as in the source). Parent: KSSQSVLYESRNKNSVA, WASTRES, QQYHRLPLS. Numbers give log10(Kd / nM), so 0 is 1 nM and 3 is 1 µM. Smaller is tighter.

| CDR-L1 | CDR-L2 | CDR-L3 | log10 Kd, replicates | control signals |
|---|---|---|---|---|
| KLSQSVLYESRNKNSVA | SASTREQ | QQYHRLPLS | 0.06 / -0.03 / -0.17 / -0.17 / 0.04 / -0.02 | 1 of 18 (2.70) |
| KLRQSMLYESRNKNSVA | NASTRES | QQYHRLPLS | 0.59 / 0.42 / 0.38 / 0.42 / 0.64 / 0.77 | 0 of 18 |
| KVSQSVPYEERNKNSVA | NASTRES | QQYHRLPLS | -0.01 / -0.34 / -0.39 / -0.36 / -0.37 / 0.11 | 0 of 18 |
| KLSQSMLYESRMKNSVA | NASTRMS | QQYHRLPLS | -0.02 / -0.23 / -0.18 / -0.33 / -0.23 / -0.21 | 0 of 18 |
| KLPQSDLYESRNKNSVA | QASQRES | QQYHRLPLS | 0.08 / -0.05 / -0.01 / -0.26 / -0.17 / 0.01 | 2 of 18 (2.65) |
| KLSQQHLYESRNKNSVA | QASTRES | QQYHRLPLS | 0.25 / 0.00 / -0.12 / 0.17 / -0.02 / 0.05 | 0 of 18 |
| KVSQSELYESRQKNSVA | NASQRES | QQYHRLPLS | 0.97 / 0.59 / 0.71 / 0.41 / 0.70 / 0.93 | 3 of 18 (3.25) |
| KLPQSDLYESRNKNSVA | DASTRES | QQYHRLPLS | -0.28 / -0.08 / -0.22 / -0.30 / -0.10 / -0.25 | 2 of 18 (1.83) |
| HLSQSVLMESRNKNSVA | DASTRES | QQYHRLPLS | 0.04 / -0.18 / -0.18 / -0.30 / -0.32 / -0.21 | 0 of 18 |
| KLSQSELYEDRNKNSVA | NASQRES | QQYHRLPLS | 0.14 / -0.06 / 0.31 / 0.21 / 0.01 / 0.08 | 0 of 18 |
| KLSQSVLYESRNKNNVA | DASTRES | QQYHRLPLS | -0.45 / -0.63 / -0.65 / -0.66 / -0.73 / -0.54 | 0 of 18 |
| KVMQSELYESRNKNSVA | NASQRES | QQYHRLPLS | 0.00 / 0.09 / -0.12 / -0.12 / 0.13 / 0.04 | 1 of 18 (4.40) |
| KLSQSMLYESRNKWSVA | NASQRES | QQYHRLPLS | 0.26 / 0.08 / -0.54 / 0.00 / 0.02 / -0.19 | 0 of 18 |
| KFSQSYLYEDRNKNSVA | NASQRES | QQYHRLPLS | 0.56 / 0.31 / 0.19 / 0.31 / 0.30 / 0.72 | 0 of 18 |
| KLMQSVLYESRNKNNVA | GASTRES | QQYHRLPLS | -0.31 / -0.44 / -0.47 / -0.54 / -0.70 / -0.33 | 2 of 18 (2.70) |
| KLSQSVLYEERNKNSVA | NASQRMS | QQYHRLPLS | -0.39 / -0.25 / -0.44 / -0.63 / -0.55 / -0.63 | 0 of 18 |
| KLSQSVLYEERNKNSVA | DASQRES | QQYHRLPLS | -0.11 / -0.08 / -0.36 / -0.47 / -0.44 / -0.07 | 1 of 18 (1.90) |
| HLSQSVLYESRNKNSVA | NASTREE | QQYHRLPLS | -0.19 / -0.39 / -0.35 / -0.60 / -0.37 / -0.32 | 1 of 18 (2.38) |
| KLPQSGLYESRNKNSVA | NASTREV | QQYHRLPLS | -0.40 / -0.48 / -0.65 / -0.40 / -0.54 / -0.56 | 0 of 18 |
| KFSQSVLYESRNKNSVA | NASTRES | QQYHRLPLQ | -0.06 / -0.28 / -0.23 / -0.28 / -0.27 / -0.22 | 0 of 18 |
| KLMQSDLYESRNKNSVA | HASTRES | QQYHRLPLS | 0.08 / -0.03 / 0.03 / 0.04 / 0.25 / 0.10 | 1 of 18 (3.52) |
| KLQQSELYESRNKNSVA | NASKRES | QQYHRLPLS | 0.14 / -0.22 / -0.53 / -0.39 / -0.34 / -0.09 | 1 of 18 (2.06) |
| KFQQSVLYESRNKNSVA | NASQRES | QQYHRLPLS | -0.19 / 0.32 / -0.10 / -0.21 / -0.42 / 0.06 | 0 of 18 |
| KLQQSNLYESRNKNSVA | NASYRES | QQYHRLPLS | 0.09 / -0.26 / -0.48 / -0.60 / -0.46 / -0.30 | 1 of 18 (2.18) |
| KLSQSVLYEERNKNSVA | QASTRLS | QQYHRLPLS | -0.14 / -0.33 / -0.33 / -0.16 / -0.33 / -0.07 | 1 of 18 (3.71) |
| KLSQSFLYESRNKNNVA | DASTRES | QQYHRLPLS | -0.65 / -0.42 / -0.66 / -0.86 / -0.69 / -0.42 | 0 of 18 |
| KLVQSVLYESRNKNSVA | NASTRMS | QQYHRLPLS | 0.55 / 0.06 / 0.43 / 0.27 / 0.35 / 0.32 | 1 of 18 (3.10) |
| KLPQSWLYESRNKNSVA | HASTRES | QQYHRLPLS | 0.51 / 0.64 / 0.28 / 0.55 / 0.53 / 0.53 | 0 of 18 |
| KLSQSQLYESRNKNNVA | GASTRES | QQYHRLPLS | -0.31 / -0.45 / -0.48 / -0.41 / -0.43 / -0.20 | 0 of 18 |
| KVSQSELYESRNKNAVA | EASTRES | QQYHRLPLS | -0.16 / -0.04 / -0.36 / -0.56 / -0.33 / 0.15 | 2 of 18 (2.34) |
| HLSQSVLYESRNKNSVA | NASTREW | QQYHRLPLS | 0.27 / 0.14 / 0.23 / 0.00 / -0.13 / 0.25 | 0 of 18 |
| KLQQSVLYESRNKNSVA | NASQRES | QQYHRLPLS | 0.05 / 0.09 / -0.15 / -0.24 / -0.30 / 0.02 | 1 of 18 (1.37) |
| KLDQSVLYESRNKNSVA | NASTREQ | QQYHRLPLS | -0.31 / 0.16 / -0.45 / -0.67 / -0.19 / -0.04 | 0 of 18 |
| KSSESELYESRNKNSVA | EASTRES | QQYHRLPLS | 0.03 / 0.28 / 0.02 / -0.02 / 0.05 / 0.08 | 2 of 18 (2.82) |
| KLQQSWLYESRNKNSVA | GASTRLS | QQYHRLPLS | 0.93 / 0.23 / 0.23 / 0.23 / 0.08 / 0.22 | 0 of 18 |
| KLSQSVLYESRNCNSVA | NASTRES | QQYHRLPLS | 0.54 / 0.56 / 0.41 / 0.17 / 0.40 / 0.50 | 1 of 18 (2.87) |
| KLSQSWGYESRNKNNVA | NASTRES | QQYHRLPLS | 0.07 / -0.16 / -0.04 / -0.04 / -0.04 / -0.12 | 2 of 18 (2.69) |
| ILSQSVLYESRNKNSVA | NASTRMS | QQYHRLPLS | -0.21 / -0.33 / -0.33 / -0.49 / -0.33 / 0.04 | 0 of 18 |
| KLSQSWLYESRNFNSVA | NASQRES | QQYHRLPLS | 0.25 / 0.03 / 0.48 / 0.28 / 0.36 / 0.54 | 1 of 18 (1.63) |
| KSSQSVLYQSRNKNSVA | EASTRES | QQYHRLPLS | 0.61 / 0.54 / 0.53 / 0.60 / 0.47 / 0.77 | 0 of 18 |
| KLSESWLYESRNKNNVA | NASTRES | QQYHRLPLS | -0.35 / -0.43 / -0.49 / -0.62 / -0.41 / -0.36 | 0 of 18 |

Picked from the list: the 7 lowest averages where every replicate gave a value.

{"CDR-L1": "KLSQSFLYESRNKNNVA", "CDR-L2": "DASTRES", "CDR-L3": "QQYHRLPLS", "log10 Kd, replicates": "-0.65 / -0.42 / -0.66 / -0.86 / -0.69 / -0.42", "control signals": "0 of 18"}
{"CDR-L1": "KLSQSVLYESRNKNNVA", "CDR-L2": "DASTRES", "CDR-L3": "QQYHRLPLS", "log10 Kd, replicates": "-0.45 / -0.63 / -0.65 / -0.66 / -0.73 / -0.54", "control signals": "0 of 18"}
{"CDR-L1": "KLPQSGLYESRNKNSVA", "CDR-L2": "NASTREV", "CDR-L3": "QQYHRLPLS", "log10 Kd, replicates": "-0.40 / -0.48 / -0.65 / -0.40 / -0.54 / -0.56", "control signals": "0 of 18"}
{"CDR-L1": "KLSQSVLYEERNKNSVA", "CDR-L2": "NASQRMS", "CDR-L3": "QQYHRLPLS", "log10 Kd, replicates": "-0.39 / -0.25 / -0.44 / -0.63 / -0.55 / -0.63", "control signals": "0 of 18"}
{"CDR-L1": "KLMQSVLYESRNKNNVA", "CDR-L2": "GASTRES", "CDR-L3": "QQYHRLPLS", "log10 Kd, replicates": "-0.31 / -0.44 / -0.47 / -0.54 / -0.70 / -0.33", "control signals": "2 of 18 (2.70)"}
{"CDR-L1": "KLSESWLYESRNKNNVA", "CDR-L2": "NASTRES", "CDR-L3": "QQYHRLPLS", "log10 Kd, replicates": "-0.35 / -0.43 / -0.49 / -0.62 / -0.41 / -0.36", "control signals": "0 of 18"}
{"CDR-L1": "KLSQSQLYESRNKNNVA", "CDR-L2": "GASTRES", "CDR-L3": "QQYHRLPLS", "log10 Kd, replicates": "-0.31 / -0.45 / -0.48 / -0.41 / -0.43 / -0.20", "control signals": "0 of 18"}

Values of this round are not directly comparable with the first-round values of the same sequences. Background: pairings of all light chain designs with three empty control strains gave a value in 4% of cases (median 2.64, 5th percentile 1.59). Values in that range, when seen in few replicates, are hard to tell from nonspecific mating. The control count says in how many pairings with the empty strains this scFv gave a signal, with their mean in brackets. The authors averaged sequences with at least three values out of six and counted those with two or fewer as poor binders.